From patent US12005066B2, “Cobinamide compounds as a cyanide, sulfide, or methane-thiol antidote” (dated 2024)

Experiment: Mouse lethal cyanide inhalation model
Details: observed for at least two weeks

Question: With di-(5-amino-tetrazole)-cobinamide as the substance, how does the condition of survivors read?
Answer: Its condition of survivors is “all appeared normal”.
